Reference: patent US10233209B2, “Inhibitors of the farnesoid x receptor and uses in medicine” (The United States of America, as represented by the …, priority 2013, dated 2019)

Biological target: T1, human FXR (Homo sapiens, UniProt Q96RI1)
T1 construct: expressed in transfected cells; host or cells: HEK293T
T1 sequence (Q96RI1 262-486 limits assumed): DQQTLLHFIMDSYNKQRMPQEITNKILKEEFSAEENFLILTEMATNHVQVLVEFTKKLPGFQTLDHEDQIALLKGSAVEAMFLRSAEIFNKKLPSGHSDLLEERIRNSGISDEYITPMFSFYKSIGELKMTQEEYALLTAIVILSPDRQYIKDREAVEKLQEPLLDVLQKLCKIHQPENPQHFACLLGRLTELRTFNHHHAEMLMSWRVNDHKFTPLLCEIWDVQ
Assay: human FXR competition assay (GAL4-FXR chimeric receptor luciferase, HEK293T)
Format: cell-based
Conditions: in the presence of GW4064
Description: Luciferase detection was conducted using the Dual Luciferase Reporter Assay kit (Promega Corp., Madison, Wis.) and a Tecan GeniosPro luminescent plate reader (Research Triangle Park, N.C.).
Luciferase detection was conducted using the Dual Luciferase Reporter Assay kit (Promega; Madison, Wis.) and a Tecan GeniosPro™ luminescent plate reader (Research Triangle Park, N.C.).

- FXR activity induced by synthetic agonist GW4064 (luciferase, normalized to Renilla): inhibited FXR
Structure (SMILES): C[C@H](CCC(=O)NCCS(=O)(=O)O)[C@H]1CC[C@H]2[C@@H]3[C@@H](O)C[C@@H]4C[C@H](O)CC[C@]4(C)[C@H]3CC[C@]12C [TUDCA, tauroursodeoxycholic acid]
